Assay results published in patent US4479951A, “1.4;3.6-Dianhydrohexitol nitrates substituted by purine bases, processes for their preparation and pharmaceutical compositions” (Dr. Willmar Schwabe GmbH & Co., priority 1980, dated 1984).

Tested on: mongrel dogs
Assay: circulatory-pharmacological effectiveness on the narcotised dog, intravenous administration
Type: in vivo
Settings: 1 mg/kg i.v.

## Nc1ncnc2c1ncn2[C@H]1CO[C@H]2[C@@H]1OC[C@@H]2O[N+](=O)[O-] [1c/2c, 5-(9-Adenyl)-5-desoxy-1.4;3.6-dianhydro-L-iditol 2-nitrate]
  effectiveness, especially lowering of the end diastolic pressure in the left ventricle and longterm lowering of the pressure in the A. pulmonalis, comparison: better than that of the comparison compound ISDN
